The test deals with T1, recombinant human PDGF-CC core domain protein (activated PDGF-CC, growth factor domain) (human, UniProt Q9NRA1).
T1 construct: platelet-derived growth factor C, human, core domain (growth factor domain, GFD) released from the N-terminal CUB domain; also called hPCc; active PDGF-CC
Put plainly: immunoblot; human, mouse and rat PDGF-CC, reduced and non-reduced, probed with ch6B3.

Amino acid sequences for entries named in this document (tags omitted). Residues count along the entry.
UniProt Q9NRA1, 230-345: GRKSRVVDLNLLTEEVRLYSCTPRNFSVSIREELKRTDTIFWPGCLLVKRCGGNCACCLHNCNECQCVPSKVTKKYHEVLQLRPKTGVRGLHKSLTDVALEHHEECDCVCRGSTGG

B1: chimeric anti-PDGF-CC antibody ch6B3 (antibody, V domains shown)
VH: QVQLQQSGVEVARPGASVKLSCKASGYTFGSYGITWVRQRTGQGLEWIGEIYPRSGKTYYNEKFKGKATLTADTSSSTVYMELRSLTSEDSAVYFCAREGYGYDGGYFDYWGQGTTLTVSS
VL: DIVMTQSPSSLAMSVGQKVTMSCKSSQSLLNSRNQKNYLAWYQQKPGQSPKLLVYFASTRESGVPDRFTGSGSGTDFTLTISSVQAEDLAVYYCQQHYSTPLTFGAGTKLELK
Turning to B1, the binding result is given as “binds”.

Values taken from PMC6063412, “Development of monoclonal anti-PDGF-CC antibodies as tools for investigating human tissue expression and for blocking PDGF-CC induced PDGFRα signalling in vivo” (PLoS ONE, 2018).
